By UniProt entry, the sequences of proteins in these tests, tags left out. Residues count along the entry.
UniProt P02768, 25-609: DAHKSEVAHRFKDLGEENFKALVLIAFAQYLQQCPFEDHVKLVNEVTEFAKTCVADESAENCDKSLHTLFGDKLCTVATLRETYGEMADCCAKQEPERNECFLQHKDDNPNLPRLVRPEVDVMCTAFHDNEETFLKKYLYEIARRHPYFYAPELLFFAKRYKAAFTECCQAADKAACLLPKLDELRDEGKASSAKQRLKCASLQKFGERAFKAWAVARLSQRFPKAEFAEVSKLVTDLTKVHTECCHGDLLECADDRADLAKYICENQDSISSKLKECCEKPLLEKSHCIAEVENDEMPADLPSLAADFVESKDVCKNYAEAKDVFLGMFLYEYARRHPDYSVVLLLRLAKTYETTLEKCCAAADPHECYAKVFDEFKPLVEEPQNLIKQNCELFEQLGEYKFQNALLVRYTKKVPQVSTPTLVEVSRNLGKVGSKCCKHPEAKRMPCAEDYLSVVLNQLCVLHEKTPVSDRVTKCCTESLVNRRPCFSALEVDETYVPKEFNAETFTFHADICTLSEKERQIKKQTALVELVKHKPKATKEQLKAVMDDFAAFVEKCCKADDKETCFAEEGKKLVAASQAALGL

According to US10689415B2, “Conjugates of RGD peptides and (bacterio)chlorophyll photosensitizers” (YEDA RESEARCH AND DEVELOPMENT COMPANY LTD., priority 2006, dated 2020):

Target: HSA (Homo sapiens, UniProt P02768)
Assay: Association constants of photosensitizers to HSA (spectroscopic titration)
Format: binding
From the text: Association constants of photosensitizers, conjugated or non-conjugated to an RGD-containing peptide, were deduced from spectroscopic measurements of the ratio between the photosensitizer and HSA for different concentrations of HSA using both factor analysis, as previously described (Brandis et al., 2005) and by monitoring changes in the near infrared (NIR) absorption of the photosensitizers during titration with HSA. Briefly, all photosensitizers (PhSs) present broad NIR absorption with reduced intensity in SA-free aqueous solutions. Upon addition of SA, they form 1:1 complexes with the added protein (PhS/SA) with strong and narrow NIR absorption bands. The narrow-band absorption is proportional to the (PhS/SA) concentration enabling calculation of the association constant Ka through the following equation:
[formula] where [SA]0 is the analytical concentration of the added SA and [PhS/SA] is the concentration of the photosensitizer complexed with SA calculated from the spectral changes. In Vitro Studies
Therefore, the association constants of compounds 8 and 25 and conjugates 13 and 24 were determined. […] In fact, those for the RGDconjugates were four to six fold lower than the association constants of their RGD-free analogues, ruling out stronger SA association as the sole basis for RGD-conjugates retention in the tumor.

Row | Substance | association constants Ka(HSA)
1 | 3^1-oxo-15-methoxycarbonylmethyl-Rhodobacteriochlorin 13^1-(2-sulfoethyl)amide potassium salt [Compound 25, reference compound] | 0.44±0.09
2 | Palladium 3^1-oxo-15-methoxycarbonylmethyl-Rhodobacteriochlorin 13^1-(2-sulfoethyl)amide potassium salt [Compound 8] | 0.54±0.07
